Patent US10280198B2, “Therapeutic agents for reducing parathyroid hormone levels” (KAI PHARMACEUTICALS, INC., priority 2009, dated 2019)

Test system: rat peritoneal mast cells
Test: In vitro histamine induction in rat peritoneal mast cells
Type: cell-based
Details: Table 9, 15 minutes, 37° C.
Procedure: To further evaluate the relationship between compound structure and histamine release, a series of compounds was prepared and assessed for their ability to trigger induction of histamine in an in vitro assay using rat peritoneal mast cells. In this assay, compounds are incubated at 10 μM for 15 minutes at 37° C. with cells isolated from peritoneal lavage of SD rats. Following incubation, cell medium is collected and histamine is determined.
Accordingly, and as can be appreciated in view of the PTH data and the histamine data described hereinabove, in one embodiment, a compound that has activity to decrease PTH level in a subject in the absence of a histamine response is contemplated. In certain embodiments, absence of a histamine response intends a dose of the compound that produces a less than 10-fold, more preferably 8-fold, still more preferably 5-fold, and even still more preferably 3-fold, increase in histamine, measured in vitro in an assay as described herein, where the fold change is determined based on histamine levels before incubation with the compound and after 15 minutes incubation with compound. […] Cell supernatant was analyzed for histamine using histamine EIA kit (Cayman #589651). […]

Substance	Histamine in vitro Fold change of non-treated at 10 uM
Ac-ca(DAP)rrar-NH2 [SEQ ID NO: 153]	1.6 fold
Ac-carrr-Nle-r-NH2 [SEQ ID NO: 129]	2.6 fold
